Biological target: T1, Lysosomal acid glucosylceramidase (Homo sapiens, UniProt P04062)
T1 sequence (P04062 whole entry): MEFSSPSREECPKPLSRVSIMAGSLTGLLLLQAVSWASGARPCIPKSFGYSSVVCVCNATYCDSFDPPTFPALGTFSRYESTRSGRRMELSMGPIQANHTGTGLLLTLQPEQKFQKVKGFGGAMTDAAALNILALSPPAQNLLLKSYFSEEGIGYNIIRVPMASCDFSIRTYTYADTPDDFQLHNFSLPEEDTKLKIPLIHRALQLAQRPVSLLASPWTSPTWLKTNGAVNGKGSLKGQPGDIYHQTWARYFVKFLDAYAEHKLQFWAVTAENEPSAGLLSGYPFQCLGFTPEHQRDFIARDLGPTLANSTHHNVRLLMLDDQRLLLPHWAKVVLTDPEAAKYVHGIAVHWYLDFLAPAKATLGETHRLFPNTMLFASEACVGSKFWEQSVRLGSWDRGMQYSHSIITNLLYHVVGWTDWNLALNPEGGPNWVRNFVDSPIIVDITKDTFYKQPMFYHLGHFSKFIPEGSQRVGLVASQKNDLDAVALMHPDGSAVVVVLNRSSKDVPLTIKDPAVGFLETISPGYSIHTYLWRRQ
Assay: Inhibiton Assay
Details: pH 5.5; 37 °C
Protocol: Beta-glucocerebrosidase (GCase) activity was measured by release of 4-methylumbelliferyl fluorophore from MUClc.

IC50: 80 µM
Compound: Cc1ccccc1C(=O)Nc1ccncc1 [2-methyl-N-pyridin-4-yl-benzamide, 2a]

Source: BindingDB's records for doi:10.1002/cbic.200800304 (Research Institute, Hospital For Sick Children, 2008)
